The results in this text go back to ChEMBL document CHEMBL1138079.

Each structure is given as a SMILES string. Where “and” joins values, the source holds several entries; their conditions need not be identical. Equal entries are not always repeated.

Data set [1] concerns SK-OV-3. The experiment in a line: Ratio for antiproliferative activity against NTR- SKOV3 cells to NTR+ SKOV3 cells after 18 hrs.
Data set [2] is described as follows: Half life in phosphate buffer at pH 7 at 37 degC assessed as reduction by Escherichia coli nitroreductase by NR assay.
Data set [3] deals with SK-OV-3. The experiment in a line: Antiproliferative activity against NTR expressing human SKOV3 cells after 18 hrs. Format: functional, cell-based. In outline:
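SKOV3 ovarian carcinoma cells stably transduced with a retroviral NTR vector and selected with 1 mg/mL G418, compared with parental SKOV3. Plated at 20 000 cells/well and allowed to adhere 24 h. Prodrug range given for 18 h, then replaced with drug-free medium. MTT survival read 2 days later. Ratio is NTR⁻/NTR⁺ IC50.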

As a reminder, the IC50 is the concentration needed to halve the response being measured. Lower therefore signals inhibition by little substance. `O=[N+]([O-])c1ccc(C2CCOP(=O)(N(CCCl)CCCl)O2)cc1` (stereo not drawn): the Ratio in data set [1] is 200 and > 230. In addition, the T1/2 in data set [2] is 4.8 min and 7.3 min. Further, the IC50 in data set [3] is 2.5 µM and 4.3 µM.
